# Test results reported in patent US20120190723A1, “VIRAL MODULATORS AND PROCESSES THEREOF” (priority 2010, published 2012).
# Test system: U87MG astrocytes
# Assay: U87MG cell viability
# Settings: 24 hours, MTT
smiles,measurement,setting,value
O=C1Nc2cc(Br)ccc2C1=C1Nc2ccccc2C1=NO,cellular viability,0.1 μM,increase in cellular viability
same,cellular viability,1.0 μM,substantially no effect on cellular viability
same,cellular viability,10 μM,56%
